Legend:
[1] = biological target: T1, human neurokinin 2 (NK2) receptor (Homo sapiens, UniProt P21452); experiment: Neurokinin receptor binding assay, NK2 ([3H]-Neurokinin A, CHO membranes); details: racemic compounds except specifically defined enantiomers
T1 construct: expressed in transfected cells; host or cells: Chinese Hamster ovary (CHO) cells
Method: (§1) Chinese Hamster ovary (CHO) cells transfected with the coding regions for the human neurokinin 1 (NK1) of the human neurokinin 2 (NK2) receptors are grown in Dulbecco's minimal essential medium supplemented with 10% fetal calf serum, 0.1 mM non-essential amino acids, 2 mM glutamine, 100 units/ml of penicillin and streptomycin, and 0.8 mg of G418/ml at 37° C. in a humidified atmosphere containing 5% CO2.
(§2) Cells are harvested by centrifugation and washed in RPMI media at […] for 5 minutes. The pellet is resuspended inTris-HCl (pH7.4) containing 1 uM phosphoramidon and 4 ug/ml of chymostatin at a cell density of 30×10^6 cells/ml. The suspension is then homogenized in a Brinkman Polytron (setting 5) for 30-45 seconds. The homogenate is centrifuged at 800×g for 5 min at 4° C. to collect unbroken cells and nuclei. The supematant is centrifuged in a Sorvall RC5C at 19,000 rpm ([…]) for 30 min at 4° C. The pellet is resuspended, an aliquot is removed for a protein determination (BCA) and washed again. The resulting pellet is stored at -80° C.
(§3) Binding is initiated by the addition of 100 μl of membrane (10-20 μg) containing the human NK-1 or NK-2 receptor in a final volume of 200 μl. After 40 minutes at room temperature, the reaction is stopped by rapid filtration onto Whatman GF/C filters which have been presoaked in 0.3% polyethylenimine. Filters are washed 2 times with 3 ml of 50 mM Tris-HCl (pH7.4).

Protein sequences, listed by entry. Tags and fused reporters are not part of them.
UniProt P21452, whole entry: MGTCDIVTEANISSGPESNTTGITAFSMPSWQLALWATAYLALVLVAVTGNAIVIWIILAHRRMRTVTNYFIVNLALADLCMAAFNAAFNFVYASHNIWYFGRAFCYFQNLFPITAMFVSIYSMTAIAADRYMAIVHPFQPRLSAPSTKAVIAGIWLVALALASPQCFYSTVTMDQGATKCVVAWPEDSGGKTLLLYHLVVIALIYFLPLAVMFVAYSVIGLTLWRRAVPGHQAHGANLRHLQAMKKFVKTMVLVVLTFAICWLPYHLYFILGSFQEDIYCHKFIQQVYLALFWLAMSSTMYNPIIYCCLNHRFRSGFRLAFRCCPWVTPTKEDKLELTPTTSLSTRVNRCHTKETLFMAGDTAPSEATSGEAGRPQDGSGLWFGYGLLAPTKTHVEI
UniProt P25103, whole entry: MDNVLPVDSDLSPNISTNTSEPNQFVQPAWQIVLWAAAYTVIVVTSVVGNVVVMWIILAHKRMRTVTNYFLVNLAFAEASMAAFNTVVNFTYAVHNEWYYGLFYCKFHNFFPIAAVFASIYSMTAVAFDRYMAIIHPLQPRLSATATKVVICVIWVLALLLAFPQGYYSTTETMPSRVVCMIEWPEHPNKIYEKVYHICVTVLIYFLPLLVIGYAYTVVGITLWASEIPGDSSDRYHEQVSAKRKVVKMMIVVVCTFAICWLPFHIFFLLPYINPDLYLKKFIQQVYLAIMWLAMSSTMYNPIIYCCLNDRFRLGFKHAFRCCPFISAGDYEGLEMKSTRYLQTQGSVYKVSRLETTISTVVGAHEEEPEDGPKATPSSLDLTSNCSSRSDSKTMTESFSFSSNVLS

[2] = biological target: T2, human neurokinin 1 (NK1) receptor (Homo sapiens, UniProt P25103); experiment: Neurokinin receptor binding assay, NK1 ([3H]-Substance P, CHO membranes); details: racemic compounds except specifically defined enantiomers
T2 construct: expressed in transfected cells; host or cells: Chinese Hamster ovary (CHO) cells
Method: as §1, §2
as §3, with “Filters are washed 2 times with 3 ml of 50 mM Tris-HCl (pH7.4).” left out

Cc1cc(C)cc(C(=O)N2CCN(C(=O)CNC3CCN(Cc4ccccc4)CC3)C(c3ccc(Cl)c(Cl)c3)C2)c1 (stereo not drawn)
Ki [1]: 4.3 nM

O=C(c1cc(C(F)(F)F)cc(C(F)(F)F)c1)N1CCN(C(=O)CNC2CCN(Cc3ccccc3)CC2)C(c2ccc(Cl)c(Cl)c2)C1 (stereo not drawn)
Ki [1]: 11.4 nM | Ki [2]: 4.9 nM

Cc1cc(C)cc(C(=O)N2CCN(C(=O)CNC3CCN(Cc4ccccc4)CC3)C(c3ccc(Cl)c(Cl)c3)C2)c1 (single isomer, unassigned)
Ki [1]: > 66 nM

O=C(c1cc(C(F)(F)F)cc(C(F)(F)F)c1)N1CCN(C(=O)CNC2CCN(Cc3ccccc3)CC2)C(c2ccc(Cl)c(Cl)c2)C1 (single isomer, unassigned)
Ki [1]: 355 nM | Ki [2]: 2.2 nM
